The values that follow come from patent publication US20260382564A1, “COMPOSITIONS AND METHODS FOR TREATING A DISEASE OR DISORDER ASSOCIATED WITH SENESCENCE” (published 2026).

One series has as its system senescent cells. Conditions: previously published data [4][5][6][7]; cited from earlier work.
Series [1] in a line: Example 11: mouse blood cell counts compared with values before treatment. Conditions: intraperitoneal three times at 48 h. The procedure: This experiment aimed to compare the blood parameters and levels of senescence-associated secretory phenotype (SASP) in the brains and kidneys of mice before and after various treatments.
The treatments included: i) administration of FOXO4-DRI (5 mg/kg, n=3), ii) administration of FOXO4-DRI loaded into exosomes (100 million) derived from human WJ-MSCs (FOXO-EXO, n=4), iii) administration of Fisetin (a plant flavonol with senolytic activity, n=3), iv) administration of Fisetin loaded into the same kind of exosomes (Fisetin-EXO, n=4). The schematic of the experimental plan is shown FIG. 6.
The control group consisted of intact animals (n=3), and an additional comparison was made with mice treated with exosomes derived from WJ-MSCs without any additional cargo (n=3). For this purpose, 20 male BALB/C mice aged 24 to 26 weeks were prepared from the National Science and Research Institute and Medicine Innovative Center, Vilnius, Lithuania. The animals were kept under standard vivarium conditions with a 12-h light/dark cycle, a complete diet, and free access to food and water. Animal care and handling were carried out under national and international requirements for the treatment of animals used for scientific purposes.
(§1) Experimental treatments were administered intraperitoneally three times at 48 h intervals using a sterile hypodermic syringe and a stainless-steel needle (26 G). Animals were subjected to intravital blood sampling from the lateral tail vein before and on days 7, and day 21 after the first treatment. On day 22, all animals were humanely sacrificed, their blood was collected for biochemical assessment, and the brain and kidneys were harvested for measurements of SASP.
Blood sampling for hematology was performed from the tail vein. The following parameters were analyzed: white blood cell count (WBC), platelets (PLT), neutrophils (NEU), lymphocytes (LYM), monocytes (MONO), and eosinophils (EOS). This was done using a hematological autoanalyzer (ADVIA2120i Hematology analyzer, Bayer, USA.
Experimental data were processed using the Statistica 10.0 software package. Data are shown in graphs as mean±SEM. In experiment 2 the nonparametric Kruskal-Wallis's test was used for intergroup comparison, whereas Wilcoxon matched pair test was applied for the comparisons within the same group. The differences were considered statistically significant with a P-value equal to or less than 0.05. Senolytics are the compounds that encourage damaged senescent cells to destroy themselves thereby extending the health span of organisms. Cellular senescence is associated with age-related diseases, including cardiovascular diseases, neurodegenerative diseases, type 2 diabetes, osteoarthritis, atherosclerosis, and various types of tumors. According to previously published data, treatments with FOXO4-DRI or Fisetin selectively destroyed senescent cells and produced rejuvenation in older laboratory animals. FOXO4-DRI is a cell-penetrating peptide (CPP) designed by a group of Peter L. J. de Keizer in 2017 to perturb the FOXO4 interaction with p53 [3]. Fisetin's senolytic activity is mediated via the inhibition of pro-survival PI3K/AKT and MAPK pathways, leading to the sensitization of senescent cells to apoptosis. Both compounds' actions do result in activating p53, reducing oxidative stress and inflammation, and modulating the senescence-associated secretory patterns (SASP).

Series [2] deals with SASP cytokines (IL-1β, IL-6, TNF-α, TGF-β, and IL-12). The series can be described thus: SASP cytokine levels in brain and kidneys, overall. Conditions: day 22. The procedure:
as §1
Senescence-associated secreted patterns (SASP) were measured in mice brains and kidneys at the end of Experiment 2—on day 22nd after the initial injection of treatment. SASP cytokine concentrations varied between the brain and kidneys of the same mice (FIG. 21-24). Levels of TGF-β1 were bigger in the brain, whereas the contents of IL-1β, IL-6, and TNF-α were higher in the kidneys. IL12p70 was detected only in the kidneys (FIG. 25). All treatments increased the concentration of IL-1β in the brain but only Fisetin+EXO led to significant changes (FIG. 21). […]
SASP cytokines (IL-1β, IL-6, TNF-α, TGF-β, and IL-12) were measured in brain and kidney tissue samples with commercially available ProcartaPlex™ Multiplex Immunoassay Kit (Thermo Fisher Scientific Inc., Waltham, Massachusetts, USA) using Luminex™ magnetic bead technology according to the instructions issued by the manufacturer.

The subject of series [3] is pro-inflammatory cytokines like IL-1β, IL-6, and TNF-α. Conditions: previous research [3][4][5]; cited from earlier work.

Turning to `O=c1c(O)c(-c2ccc(O)c(O)c2)oc2cc(O)ccc12`, in the series with senescent cells, the “senolytic / rejuvenating effect” value was “selectively destroyed senescent cells and produced rejuvenation in older laboratory animals”. Also, the monocyte count entry in series [1] (day 7, vs before treatment) is “notable decrease”. Moreover, in series [1] (day 22, vs before treatment), the EOS count entry was “notable decrease”, the NEU count result is on record as “notable decrease”, the “basophil count (BASO)” value is recorded as “notable decrease” and the monocyte count result is listed as “notable decrease”. Also, in series [1] (overall (no day stated)), the PLT count result is reported as “not significantly affected” and the RBC count entry is recorded as “not significantly affected”. Also, the SASP levels entry in series [2] (brain) is “did not produce significant changes”. In addition, in series [2] (kidneys), the SASP levels result is reported as “did not produce significant changes”. In addition, in series [3], the “modulation of SASP levels” value was “reducing the release of pro-inflammatory cytokines like IL-1β, IL-6, and TNF-α”.
